Assay results reported in paper PMC10552892, “Ebselen oxide and derivatives are new allosteric HER2 inhibitors for HER2‐positive cancers” (Molecular Oncology, 2023).

Columns and labels:
Type in all cases: cell-based, human
[1] = test system: BT474; assay: Incucyte proliferation, single agents and combinations, BT474; details: BT474, Incucyte 4 days; ebselen oxide 10 μM, lapatinib 10 nM, trastuzumab 10 μg·mL−1, alone or combined
[2] = test system: NCI-N87; assay: Incucyte proliferation, single agents and combinations, NCI-N87; details: NCI-N87, Incucyte 4 days; ebselen oxide 10 μM, lapatinib 10 nM, trastuzumab 10 μg·mL−1, alone or combined
[3] = test system: SKBR3; assay: Incucyte proliferation, single agents and combinations, SKBR3; details: SKBR3, Incucyte 4 days; ebselen oxide 10 μM, lapatinib 10 nM, trastuzumab 10 μg·mL−1, alone or combined
[4] = test system: NCI-N87; assay: Anchorage-independent growth (spheroid assay, ULA plates), NCI-N87; details: ebselen oxide 10 μM, lapatinib 10 nM, trastuzumab 10 μg·mL−1, alone or combined
Procedure: 5.10^3 cells/24‐well were seeded in a complete medium in ULA plates (Corning® Costar® (Corning, NY, USA) C LS3473‐24EA) in the presence of indicated compounds. Spheroids were imaged 6–8 days later with a phase‐contrast microscope, and their areas were measured using IMAGEJ software.

**Q.** What does the source list for trastuzumab?
**A.** Reduction/inhibition of cell proliferation [1]: 35%; Reduction/inhibition of cell proliferation [2]: 34%; Reduction/inhibition of cell proliferation [3]: 38%; Reduction of anchorage-independent growth (spheroid assay) [4]: 12%
